Data set [1] addresses Bifunctional dihydrofolate reductase-thymidylate synthase (Plasmodium falciparum K1, UniProt P13922). Put plainly: Inhibition of wild type Plasmodium falciparum DHFR expressed in Escherichia coli BL21(DE3) pLysS cells assessed as inhibition constant using DHF as substrate measured for 80 sec in presence of NADPH.
Data set [2] is described as follows: physchem. The conditions noted are these: octanol/phosphate buffer, pH 7.4.
Data set [3] can be described thus: physchem. The conditions noted are these: buffer, pH 2.
The nature of data set [4]: physchem. Particulars: buffer, pH 4.5.
Data set [5] can be described thus: physchem. The conditions noted are these: buffer, pH 6.5.
Data set [6] in a line: physchem. Particulars: buffer, pH 7.4.
The nature of data set [7]: in vitro. Particulars: human, liver microsomes. Background: Microsomes from liver hold many membrane-bound enzymes, among them those of drug oxidation.
Data set [8] can be described thus: in vitro. The conditions noted are these: rat, liver microsomes.
Data set [9] in a line: Cytotoxicity against African green monkey Vero cells assessed as reduction in cell viability incubated for 72 hrs by sulforhodamine B assay. Background: Sulforhodamine B stains cellular protein and so reports cell mass.

Chains of the proteins cited; added tags and fusions are not shown. Lines headed by an entry give the natural chain unless they say otherwise; changes in a name come on top.
UniProt P13922: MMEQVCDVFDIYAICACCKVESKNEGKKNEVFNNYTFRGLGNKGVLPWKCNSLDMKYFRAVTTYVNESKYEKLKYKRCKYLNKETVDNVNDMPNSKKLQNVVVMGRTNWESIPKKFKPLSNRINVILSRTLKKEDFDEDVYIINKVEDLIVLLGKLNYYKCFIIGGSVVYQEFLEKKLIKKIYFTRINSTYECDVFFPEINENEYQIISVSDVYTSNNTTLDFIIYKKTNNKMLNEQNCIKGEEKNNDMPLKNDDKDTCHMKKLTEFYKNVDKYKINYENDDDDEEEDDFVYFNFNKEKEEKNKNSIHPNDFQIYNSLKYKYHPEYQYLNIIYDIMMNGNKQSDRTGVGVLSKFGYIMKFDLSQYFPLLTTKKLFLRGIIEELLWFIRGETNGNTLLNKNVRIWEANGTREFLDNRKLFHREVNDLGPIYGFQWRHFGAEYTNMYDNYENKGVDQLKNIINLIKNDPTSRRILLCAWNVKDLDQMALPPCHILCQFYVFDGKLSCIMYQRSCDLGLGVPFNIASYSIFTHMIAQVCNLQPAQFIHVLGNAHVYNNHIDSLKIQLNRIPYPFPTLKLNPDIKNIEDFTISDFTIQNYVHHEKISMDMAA

These results are taken from ChEMBL document CHEMBL5584290, “Novel flexible biphenyl PfDHFR inhibitors with improved antimalarial activity” (RSC Med Chem, 2024).

By Ki is commonly meant the equilibrium dissociation constant of an inhibitor or competing ligand from its target. Broadly, the logD is the decadic logarithm of the distribution of all forms, ionised or not, between an organic phase and buffer at a given pH. Usually solubility (kinetic) stands for solubility judged after dilution from a stock solution rather than from solid. By microsomal CLint is commonly meant a measure of how fast metabolising enzymes remove a compound, apart from limits set by blood flow. As usually defined, the IC50 is the midpoint of a concentration-inhibition curve.

≈ marks a conversion by molar mass, not a printed value. Bounds are passed on as bounds.

Take `CCc1nc(N)nc(N)c1OCCCOc1ccc(-c2ccccc2)cc1`: the Ki in [1] came to 0.24 nM. For the same compound, in the data set “physchem [2]”, the logD at 2 h, 100 µM is greater than 2.5. The kinetic solubility at 2 h, 200 µM in the data set “physchem [3]” is 55.7 µM (≈ 20.3 µg/mL); in “physchem [4]”, 17.4 µM (≈ 6.36 µg/mL); in the data set “physchem [5]” it was less than 4 µM; in “physchem [6]”, less than 4 µM. Further, the microsomal CLint at 1 h is 8.94 µL/min/mg in the data set “in vitro [7]” and 12.5 µL/min/mg in “in vitro [8]”.
Consider `CCc1nc(N)nc(N)c1OCCCCOc1ccc(-c2ccc(C(=O)O)cc2)cc1.Cl`, for which the Ki in [1] was found to be 0.24 nM. Moreover, the IC50 at 72 h in data set [9] stood at 14300 nM. Further, the logD at 2 h, 100 µM in “physchem [2]” was 1.03. The kinetic solubility at 2 h, 200 µM was 56.4 µM in “physchem [3]”, less than 4 µM in the data set “physchem [4]”, less than 4 µM in “physchem [5]” and less than 4 µM in the data set “physchem [6]”. Moreover, the microsomal CLint at 1 h in the data set “in vitro [7]” is 5.95 µL/min/mg; in “in vitro [8]”, less than 3 µL/min/mg.
For the compound `CCOC(=O)c1ccc(-c2ccc(OCCCOc3c(N)nc(N)nc3CC)cc2)cc1`, the Ki in data set [1] was found to be 0.58 nM. Moreover, the IC50 at 72 h in data set [9] was found to be 14200 nM. This compound had a logD at 2 h, 100 µM in the data set “physchem [2]” greater than 2.5. Also, the microsomal CLint at 1 h in “in vitro [7]” was 134 µL/min/mg; in the data set “in vitro [8]”, 182 µL/min/mg.
Take `CCc1nc(N)nc(N)c1OCCCCOc1ccc(-c2ccccc2)cc1.Cl`: the Ki in data set [1] was 0.26 nM. Further, the logD at 2 h, 100 µM in “physchem [2]” is greater than 2.5. Further, the solubility (kinetic) at 2 h, 200 µM in “physchem [3]” is 75.7 µM; in the data set “physchem [4]”, 5.88 µM; in “physchem [5]”, less than 4 µM; in the data set “physchem [6]”, less than 4 µM. In addition, the intrinsic clearance (microsomal CLint) at 1 h in the data set “in vitro [7]” turned out to be 7.62 µL/min/mg; in the data set “in vitro [8]”, 19.3 µL/min/mg.
`CCc1nc(N)nc(N)c1OCCCCOc1cccc(-c2ccccc2)c1`: in data set [1], the Ki is 0.25 nM. The IC50 at 72 h in [9] turned out to be 6540 nM. Besides, in the data set “physchem [2]”, the logD at 2 h, 100 µM was greater than 2.5. Also, the values for the microsomal CLint at 1 h in “in vitro [7]” and in the data set “in vitro [8]” were 35.4 µL/min/mg and 378 µL/min/mg, respectively.
Regarding `CCc1nc(N)nc(N)c1OCCCOc1cccc(-c2ccccc2)c1.Cl`, the Ki in data set [1] is 0.6 nM. In addition, the IC50 at 72 h in [9] stood at 570 nM. Moreover, the logD at 2 h, 100 µM in the data set “physchem [2]” was greater than 2.5. Moreover, the kinetic solubility at 2 h, 200 µM in “physchem [3]” was 184 µM; in the data set “physchem [4]” it was 32.1 µM; in the data set “physchem [5]” it was less than 4 µM; in “physchem [6]”, 23.1 µM.
Regarding `CCc1nc(N)nc(N)c1OCCCOc1ccc(-c2ccc(C(=O)O)cc2)cc1.Cl`, in [1], the Ki is 0.16 nM. In [9], the IC50 at 72 h was 33800 nM. Besides, the logD at 2 h, 100 µM in the data set “physchem [2]” worked out at 0.97. Besides, the solubility (kinetic) at 2 h, 200 µM in the data set “physchem [3]” is 108 µM; in the data set “physchem [4]”, less than 4 µM; in the data set “physchem [5]” it was less than 4 µM; in the data set “physchem [6]” it was less than 4 µM. Moreover, the microsomal CLint at 1 h came to 6.27 µL/min/mg in the data set “in vitro [7]” and 3.63 µL/min/mg in “in vitro [8]”.
